Consider 73 compounds from PubChem BioAssay AID504810 (National Center for Advancing Translational Sciences (NCATS), 2011).

By UniProt entry, the sequences of proteins in these tests, tags left out.
UniProt P16473, whole entry: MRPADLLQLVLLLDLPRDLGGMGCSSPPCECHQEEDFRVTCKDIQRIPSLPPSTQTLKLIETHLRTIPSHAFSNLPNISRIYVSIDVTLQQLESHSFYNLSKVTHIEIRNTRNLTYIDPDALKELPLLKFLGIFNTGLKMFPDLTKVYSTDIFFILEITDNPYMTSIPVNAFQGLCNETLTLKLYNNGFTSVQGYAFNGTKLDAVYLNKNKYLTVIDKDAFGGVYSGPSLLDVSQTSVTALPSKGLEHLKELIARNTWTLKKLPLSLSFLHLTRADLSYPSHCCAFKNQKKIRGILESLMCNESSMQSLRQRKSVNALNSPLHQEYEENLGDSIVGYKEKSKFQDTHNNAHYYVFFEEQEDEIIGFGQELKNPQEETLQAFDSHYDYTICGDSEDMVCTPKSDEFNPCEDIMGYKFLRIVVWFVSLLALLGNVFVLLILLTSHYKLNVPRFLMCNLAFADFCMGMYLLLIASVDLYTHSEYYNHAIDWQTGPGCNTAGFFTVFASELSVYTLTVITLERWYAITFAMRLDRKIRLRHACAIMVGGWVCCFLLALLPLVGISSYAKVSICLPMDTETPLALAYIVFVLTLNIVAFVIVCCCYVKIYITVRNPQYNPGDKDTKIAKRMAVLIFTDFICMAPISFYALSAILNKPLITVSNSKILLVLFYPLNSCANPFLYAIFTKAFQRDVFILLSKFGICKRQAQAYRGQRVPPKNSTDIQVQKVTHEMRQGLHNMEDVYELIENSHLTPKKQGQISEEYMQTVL

Only a part is listed here, and it is no random draw. Some salts and complexes are drawn in separate pieces, as the source files them; their charges need not balance. Calls of active or inactive are those of the source.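 How the source made its calls: active means activity change below a set negative limit, meaning inhibition stronger than a set level (cut at about -70% in these data); inconclusive means activity change between two set negative limits; inactive means the rest.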
On the % scale 0 is the no-effect control and ±100 the full control effect.

This experiment concerns the target Thyrotropin receptor (Homo sapiens) (UniProt P16473). The experiment in a line: Antagonists of the Thyroid Stimulating Hormone Receptor: HTS campaign. The note with it: TSHR-expressing cells, TSH-stimulated cAMP HTRF, 2 h; at 11.5 µM; active compounds read low. From the text:
The thyroid-stimulating hormone receptor (TSHR) is a member of the 7 trans-membrane-spanning receptor (7TMR) family of cell surface receptors. TSHR-mediated hyperthyroidism is important in thyroid pathology. The development of small molecule antagonists of TSHR may lead to therapeutic approaches for TSHR-mediated hyperthyroidism caused by constitutively activating mutations or stimulating auto-antibodies associated with Graves' disease. Graves' disease is the leading cause of hyperthyroidism and is caused by autoantibodies that stimulate TSHR (TsAbs) causing thyroid growth and unregulated overproduction of thyroid hormones and existing treatments have liabilities (agranulocytosis). In addition, TSHRs are known to be expressed in multiple extrathyroidal tissues including bone, brain, kidney, testis, fat and cells of the immune system but the role of the TSHR in these tissues is not clear. Therefore, TSHR antagonists/inverse agonists could be used as probes of extrathyroidal TSHR function. Finally, TSHR inverse agonists, which are a subclass of antagonists that inhibit agonist-independent (or basal or constitutive) TSHR signaling, could be used to inhibit TSH-independent signaling in patients with recurrent or metastatic thyroid cancer who are receiving thyroid hormone to suppress TSH. In collaboration between scientist from the NCGC and the NIDDK, a miniaturized HTRF high-throughput screen was developed. It's a cell based assay, where an anti cAMP antibody contains a fluorescent cryptate tag (excitation 337 nm; emission 620 nm) and the acceptor is cAMP-d2 (excitation 620 nm; emission 665 nm). When antibody and cAMP-d2 interact and are excited by a 337 nm light, a FRET occurs resulting in emission at 665 nm. The assay is competition between cAMP-d2 and cAMP (from the cell lysate). The homogeneous protocol allows for one step dispense after stimulation that is automation friendly. NIH Chemical Genomics Center [NCGC] NIH Molecular Libraries Probe Centers Network [MLPCN] MLPCN Grant: MH090855-01 Assay Submitter (PI): Marvin Gerhengorn
1. 3ul of 200 TSHR freshly harvested cells/well are dispensed into a 1536 TC-treated white solid bottom plate. 2. Through pintool addition, 23nl of compounds and control in 100% DMSO are added to the plate. 3. Then 1ul of EC80 TSH (4nM final) is added to the plate. 4. Assay is incubated at 37 deg C for 2 hours. 5. 2ul of cAMP antibody diluted 1:20 in lysis buffer is added. 6. Immediately following, 2ul of d2 diluted 1:20 in HBSS is added seperately. 7. The assay is incubated for 30 minutes at ambient room temperature. 8. The result is obtained by using a ViewLux read-out with HTRF settings.
For orientation: Time-resolved FRET reads energy transfer from a long-lived donor to a nearby acceptor.
As for `O=C(NCC1(N2CCCCC2)CCCCC1)c1ccco1`, the activity change, negative = inhibition is inactive: 10.3%. The result for `CN(C)c1ccc(C(=O)NCC2(N3CCCCC3)CCCCC2)cc1` reads inactive: -2.32%; that for `CCN1CCC(Nc2cccc(F)c2)CC1`, inactive: 2.02%; that for `Cc1ccc(C(=O)NCC2(N3CCCCC3)CCCCC2)o1`, inactive: 0.769%. Then `Fc1ccccc1NC1CCN(Cc2ccccc2)CC1`, with inactive: 6.35%. The result for `CCCOc1ccc(C)cc1CN(CCCl)CCCl` reads inactive: -6.33%. As to `CN1CCC(Nc2ccc(Cl)cc2)CC1`, the activity change, negative = inhibition was inactive: 9.21%. Then `CCC(CO)(C(=O)OC1CN2CCC1CC2)c1ccccc1` (stereo not drawn), with inactive: -5.6%; and `COc1cccc(C(=O)N(c2cc(C)cc(C)c2)C2CCN(C(=O)OC(C)(C)C)CC2)c1`, with inactive: -9.14%. Then `COc1cc(OC)cc(C(=O)NCC2(N3CCOCC3)CCCCC2)c1`, with inactive: -9.64%; and `CCCOc1ccc(C(=O)NCC2(N(C)C)CCCCC2)cc1`, with inactive: 6.27%; and `CC(C)(C)OC(=O)N1CCC(Nc2ccccc2)CC1`, with inactive: -4.76%. The result for `O=C(O)C1(Nc2ccccc2)CCN(Cc2ccccc2)CC1` reads inactive: 4.73%. Take `CCOc1ncccc1C(=O)NCC1(N2CCOCC2)CCCCC1`: the activity change, negative = inhibition is inactive: 4.94%.

With `CN1CCC(Nc2ccc(F)c(Cl)c2)CC1`, the activity change, negative = inhibition is inactive: 5.79%. Then `O=C(OC1CN2CCC1CC2)C1c2ccccc2C=Cc2ccccc21` (stereo not drawn), with inactive: 10.2%; and `CCc1cc(C(=O)NCC2(N3CCCCC3)CCCCC2)sc1C`, with inactive: 11%.

On to `O=C(O)c1cccc(Nc2c([N+](=O)[O-])cc([N+](=O)[O-])cc2[N+](=O)[O-])c1`, for which the activity change, negative = inhibition is inactive: -1.01%. On to `N/C(=N\O)c1c(N)no[n+]1[O-]`, for which the activity change, negative = inhibition was inactive: 7.4%. The result for `CCOC(=O)N1CCC(Nc2ccc(C)cc2)CC1` reads inactive: -3.34%; that for `COc1ccc(C(=O)NCC2(N3CCOCC3)CCCCC2)cc1OC`, inactive: -8.39%; that for `O=C(NCC1(N2CCOCC2)CCCCC1)c1cc(Br)ccc1Cl`, inactive: -0.582%.

For `COc1cc(C(=O)NCC2(N3CCOCC3)CCCCC2)cc(OC)c1C`, the activity change, negative = inhibition was inactive: -6.89%.

Take `c1ccc(CN2CCC(Nc3ccccc3)CC2)cc1`: the activity change, negative = inhibition is inactive: 1.76%. The result for `CCCN1CCC(Nc2cc(OC)cc(OC)c2)CC1` reads inactive: -1.81%; that for `CN(C)C1(CNC(=O)c2cccc(C#N)c2)CCCCC1`, inactive: -0.917%.

`CCOC(=O)C(CC)C1=NC(C)(C)Cc2ccccc21.O=[N+]([O-])c1cc([N+](=O)[O-])c(O)c([N+](=O)[O-])c1` (stereo not drawn): the activity change, negative = inhibition was inactive: 0.142%. The result for `CC(C)(C)OC(=O)N1CCC(N(C(=O)c2ccccc2)c2ccc(Cl)cc2)CC1` reads inactive: -7.16%; that for `N#Cc1ccc(C(=O)NCC2(N3CCCCC3)CCCCC2)cc1`, inactive: 1.6%; that for `COc1ccc(NC2CCN(C(=O)OC(C)(C)C)CC2)cc1`, inactive: 15.1%. The result for `CC(C)c1ccc(C(=O)NCC2(N3CCOCC3)CCCCC2)cc1` reads inactive: 0.576%; that for `CN1CCN(CCOC(=O)C(O)(c2ccccc2)c2ccccc2)CC1`, inactive: 2.1%. The result for `O=C(NCC1(N2CCOCC2)CCCCC1)c1cc(=O)[nH]c2ccccc12` reads inactive: 5.61%; that for `COc1cc(C(=O)NCC2(N3CCCCC3)CCCCC2)ccc1OC(F)F`, inactive: -2.3%; that for `O=C(NCC1(N2CCCCC2)CCCCC1)c1cccc(C(F)(F)F)c1`, inactive: 0.378%. With `O=[N+]([O-])c1cc([N+](=O)[O-])c(NCC2CCS(=O)(=O)C2)c([N+](=O)[O-])c1` (stereo not drawn), the activity change, negative = inhibition is inactive: 10.6%. Take `CSc1ccc(C(=O)NCC2(N3CCOCC3)CCCCC2)cc1`: the activity change, negative = inhibition was inactive: 0.555%. On to `O=C(NCC1(N2CCCCC2)CCCCC1)c1cccc([N+](=O)[O-])c1`, for which the activity change, negative = inhibition is inactive: -8.64%. The result for `CCN1CCC(Nc2ccc(Cl)cc2)CC1` reads inactive: 7.5%; that for `N#CC1(Nc2ccccc2)CCN(CCc2ccccc2)CC1`, inactive: -22.3%; that for `O=C(NCC1(N2CCCCC2)CCCCC1)c1ccc(OC(F)F)cc1`, inactive: 21.8%. Then `CCCOc1ccc(C(=O)NCC2(N(C)C)CCCCC2)cc1OC`, with inactive: -0.794%; and `O=C(NCC1(N2CCCCC2)CCCCC1)c1cncc(Br)c1`, with inactive: 7.22%.

Turning to `COc1ccc2c(c1O)-c1c(O)c(OC)cc3c1[C@H](C2)[N+](C)(C)CC3.O=[N+]([O-])c1cc([N+](=O)[O-])c([O-])c([N+](=O)[O-])c1[O-]`, the activity change, negative = inhibition is inactive: -8.26%.

Regarding `O=C(OC1CN2CCC1CC2)c1ccc([N+](=O)[O-])cc1` (stereo not drawn), the activity change, negative = inhibition was inactive: 15.4%. On to `COc1cc(OC)c(C(=O)NCC2(N(C)C)CCCCC2)cc1OC`, for which the activity change, negative = inhibition is inactive: 0.157%. The result for `O=C(NCC1(N2CCOCC2)CCCCC1)c1cc(F)c(F)cc1Cl` reads inactive: 12.2%; that for `COc1ccc(CN(CCCl)CCCl)cc1Cl`, inactive: 11.3%. Take `CN(C)c1cccc(C(=O)NCC2(N3CCCCC3)CCCCC2)c1`: the activity change, negative = inhibition was inactive: -6.91%. On to `O=[N+]([O-])c1cc([N+](=O)[O-])c(OC2CCCCC2O)c([N+](=O)[O-])c1` (stereo not drawn), for which the activity change, negative = inhibition is inactive: -13%. Then `CC(C)c1ccc(NC2CCN(C(=O)OC(C)(C)C)CC2)cc1`, with inactive: -19.2%.

Regarding `CCOC(=O)N1CCC(Nc2ccc(OC)cc2)CC1`, the activity change, negative = inhibition is inactive: 2.85%. Then `O=C(OC1CN2CCC1CC2)C1c2ccccc2Oc2ccccc21` (stereo not drawn), with inactive: 20.7%. The result for `N#CC1(Nc2ccccc2)CCN(Cc2ccccc2)CC1` reads inactive: -0.356%; that for `O=C(NCC1(N2CCCCC2)CCCCC1)c1ccc(Cl)s1`, inactive: 5.38%; that for `COc1ccc(Cl)cc1C(=O)NCC1(N2CCOCC2)CCCCC1`, inactive: 12.6%. The result for `O=C(NCC1(N2CCOCC2)CCCCC1)c1cc2ccccc2o1` reads inactive: 5.69%. Regarding `O=C(NCC1(N2CCCCC2)CCCCC1)c1ccc(Cl)nc1`, the activity change, negative = inhibition was inactive: 9.89%. Then `Cc1cc(C)cc(N(C(=O)c2ccccc2)C2CCN(C(=O)OC(C)(C)C)CC2)c1`, with inactive: 3.77%; and `CSc1ccccc1C(=O)NCC1(N2CCCCC2)CCCCC1`, with inactive: -10.6%; and `O=C(NCC1(N2CCCCC2)CCCCC1)c1ccc(=O)[nH]c1`, with inactive: 8.76%. The result for `O=C(NCC1(N2CCCCC2)CCCCC1)c1cccs1` reads inactive: -0.346%.

As for `COc1ccc(C(=O)NCC2(N3CCCCC3)CCCCC2)cc1`, the activity change, negative = inhibition is inactive: 23.3%. The result for `COc1ccc(C(=O)NCC2(N3CCCCC3)CCCCC2)c(OC)c1OC` reads inactive: 18%; that for `CC(C)(C)OC(=O)N1CCC(N(C(=O)c2ccccc2)c2ccc(F)cc2)CC1`, inactive: 3.43%. Then `COc1cc(C(=O)NCC2(N(C)C)CCCCC2)ccc1OC(F)F`, with inactive: -3.26%; and `CCOC(=O)N1CCC(Nc2cccc(C)c2)CC1`, with inactive: 0.413%; and `Cc1ccc(OCC(C)C)c(CN(CCCl)CCCl)c1`, with inactive: -0.856%. The result for `O=C(NCC1(N2CCCCC2)CCCCC1)c1ccc(F)cc1` reads inactive: 0.39%; that for `CCCCOc1ccc(C(=O)NCC2(N3CCOCC3)CCCCC2)cc1`, inactive: 0.0404%; that for `CCOC(=O)N1CCC(Nc2ccc(F)cc2)CC1`, inactive: 8.7%. Consider `COc1ccc(NC2CCN(CCc3ccccc3)CC2)c(OC)c1`, for which the activity change, negative = inhibition is inactive: -8.32%. The result for `CCOc1ccc(C)cc1CN(CCCl)CCCl` reads inactive: 2.59%.
